Measured values: patent US20160152947A1 (BOARD OF REGENTS OF THE UNIVERSITY OF OKLAHOMA, published 2016)

Assays:
[1] = molecular target: LGR4 expressed by HEK293T cells (UniProt Q9BXB1); test: cell-based or functional assay
[2] = molecular target: MBP-Th-LGR4 LRR1-14 (MBP-Th-hLGR4.23-383-H6) (human) (UniProt Q9BXB1); test: TR-FRET competition binding; Tb-labeled MBP-Th-LGR4 LRR1-14 (20 nM), AF488-labeled MBP-Th-RSPO2 Fu1-Fu2 (125 nM) as tracer

Substance	pEC50, [..] Wnt signaling assay in HEK293T cells [1]	pKI [2]
MBP-Th-RSPO2 Fu1-Fu2-H6 [T111I] mutant (MBP-Th-RSPO2.22-144-H6 (T111I)) (ligand)	9.75	7.57
MBP-Th-RSPO4-1 Fu1-Fu2 chimera (MBP-Th-RSPO4.21-71-RSPO1.78-145-H6) (designed binder)		7.32
MBP-Th-RSPO2-4 Fu1-Fu2 chimera (MBP-Th-RSPO2.22-76-RSPO4.72-138-H6) (designed binder)		8.36
